Laboratory results as given in patent US10500165B2, “Purified therapeutic nanoparticles and preparation methods thereof” (CSPC ZHONGQI PHARMACEUTICAL TECHNOLOGY (SHIJIAZHUANG) CO., …, priority 2014, dated 2019).

Experiment: Albumin polymer content (HPLC)
Format: physicochemical
Conditions: for Monomer (%): share of albumin monomer; for Polymer (%): share of albumin polymer
Method: The content of human serum albumin was determined by HPLC. The human serum albumin was determined at a wavelength of 228 nm in an HPLC equipped with a Tosohaas TSK G3000 SWXL gel column and a UV-detector (1260VWD G1314B, Agilent technologies), with a mobile phase of 0.1 mol/L dipotassium hydrogen phosphate solution and an injection volume of 10 μl. The albumin content was calculated using the external standard method.
As a commercially available pharmaceutical product, human serum albumin should contain no more than 5% of the polymer according to its quality standard, since the albumin polymer may induce allergic reaction. The determination method for albumin in Example 10 can distinguish albumin monomer from the polymer. The albumin polymer and paclitaxel content were detected in the compositions from Example 1-9 (referred as initial formulation) and the compositions obtained from Method 1 of Example 24, respectively using mannitol and human serum albumin as a lyoprotectant (corresponding to Example 1-9), based on the determination method for albumin and paclitaxel in Example 10, and the albumin polymer content was calculated per 1 mg paclitaxel.
The amount of polymer in an albumin solution was increased by dialysis using a regenerated cellulose ultrafiltration membrane (PXC100C50, Millipore) with the cut-off molecular weight of 100K. The ratio of albumin polymer was detected using the method in Example 10, and the content of albumin was determined by Kjeldahl method to avoid the deviation produced by the different responses to potential polymers of HPLC method.

Substance	Monomer (%)	Polymer (%)
Poly-HSA: albumin solution enriched in polymer by dialysis with a 100K ultrafiltration membrane	25.1%	74.9%
human serum albumin [HSA]	95.8%	4.2%
